Reference: ChEMBL document CHEMBL5214957

Amino acid sequences for entries named in this document (tags omitted). A change or cut given only in a name is not applied to a line headed by its entry.
UniProt Q12791: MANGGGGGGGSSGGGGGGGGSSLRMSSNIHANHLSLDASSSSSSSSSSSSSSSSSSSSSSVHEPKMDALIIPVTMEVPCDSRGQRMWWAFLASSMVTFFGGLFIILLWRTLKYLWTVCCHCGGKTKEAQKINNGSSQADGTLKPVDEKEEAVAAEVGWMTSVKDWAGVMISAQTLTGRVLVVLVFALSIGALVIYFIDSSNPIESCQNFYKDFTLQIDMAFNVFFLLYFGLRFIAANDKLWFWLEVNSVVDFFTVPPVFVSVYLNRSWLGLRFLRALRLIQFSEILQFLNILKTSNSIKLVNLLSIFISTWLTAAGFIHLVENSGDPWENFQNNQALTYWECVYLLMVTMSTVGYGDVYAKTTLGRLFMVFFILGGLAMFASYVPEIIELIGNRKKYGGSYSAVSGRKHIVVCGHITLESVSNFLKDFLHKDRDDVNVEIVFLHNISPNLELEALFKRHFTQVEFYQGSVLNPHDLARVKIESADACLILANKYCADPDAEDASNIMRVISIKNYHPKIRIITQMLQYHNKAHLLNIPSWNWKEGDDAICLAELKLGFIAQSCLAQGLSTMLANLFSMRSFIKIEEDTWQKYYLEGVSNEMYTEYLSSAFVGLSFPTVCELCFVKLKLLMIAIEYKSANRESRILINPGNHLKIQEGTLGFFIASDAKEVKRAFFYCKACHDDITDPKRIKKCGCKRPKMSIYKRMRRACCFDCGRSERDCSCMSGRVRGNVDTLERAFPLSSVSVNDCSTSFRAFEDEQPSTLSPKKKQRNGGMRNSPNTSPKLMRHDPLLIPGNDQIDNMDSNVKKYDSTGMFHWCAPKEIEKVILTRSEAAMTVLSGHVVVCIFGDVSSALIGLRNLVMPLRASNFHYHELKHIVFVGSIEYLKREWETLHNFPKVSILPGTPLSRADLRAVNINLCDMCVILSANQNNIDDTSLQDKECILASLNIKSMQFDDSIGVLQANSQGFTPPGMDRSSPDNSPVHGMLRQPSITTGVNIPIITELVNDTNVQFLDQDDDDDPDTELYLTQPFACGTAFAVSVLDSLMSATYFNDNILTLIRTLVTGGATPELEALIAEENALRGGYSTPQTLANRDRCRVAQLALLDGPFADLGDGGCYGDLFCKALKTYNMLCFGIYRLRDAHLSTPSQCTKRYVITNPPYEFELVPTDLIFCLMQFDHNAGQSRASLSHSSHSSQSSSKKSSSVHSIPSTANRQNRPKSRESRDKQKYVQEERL

Experiments:
[1] = target: T1, Potassium channel subfamily T member 2 (Homo sapiens) (UniProt Q6UVM3); assay: Inhibition of Slick (unknown origin) expressed in HEK293 cells at 30 uM measured by thallium flux assay relative to control; type: cell-based
T1 sequence (whole entry): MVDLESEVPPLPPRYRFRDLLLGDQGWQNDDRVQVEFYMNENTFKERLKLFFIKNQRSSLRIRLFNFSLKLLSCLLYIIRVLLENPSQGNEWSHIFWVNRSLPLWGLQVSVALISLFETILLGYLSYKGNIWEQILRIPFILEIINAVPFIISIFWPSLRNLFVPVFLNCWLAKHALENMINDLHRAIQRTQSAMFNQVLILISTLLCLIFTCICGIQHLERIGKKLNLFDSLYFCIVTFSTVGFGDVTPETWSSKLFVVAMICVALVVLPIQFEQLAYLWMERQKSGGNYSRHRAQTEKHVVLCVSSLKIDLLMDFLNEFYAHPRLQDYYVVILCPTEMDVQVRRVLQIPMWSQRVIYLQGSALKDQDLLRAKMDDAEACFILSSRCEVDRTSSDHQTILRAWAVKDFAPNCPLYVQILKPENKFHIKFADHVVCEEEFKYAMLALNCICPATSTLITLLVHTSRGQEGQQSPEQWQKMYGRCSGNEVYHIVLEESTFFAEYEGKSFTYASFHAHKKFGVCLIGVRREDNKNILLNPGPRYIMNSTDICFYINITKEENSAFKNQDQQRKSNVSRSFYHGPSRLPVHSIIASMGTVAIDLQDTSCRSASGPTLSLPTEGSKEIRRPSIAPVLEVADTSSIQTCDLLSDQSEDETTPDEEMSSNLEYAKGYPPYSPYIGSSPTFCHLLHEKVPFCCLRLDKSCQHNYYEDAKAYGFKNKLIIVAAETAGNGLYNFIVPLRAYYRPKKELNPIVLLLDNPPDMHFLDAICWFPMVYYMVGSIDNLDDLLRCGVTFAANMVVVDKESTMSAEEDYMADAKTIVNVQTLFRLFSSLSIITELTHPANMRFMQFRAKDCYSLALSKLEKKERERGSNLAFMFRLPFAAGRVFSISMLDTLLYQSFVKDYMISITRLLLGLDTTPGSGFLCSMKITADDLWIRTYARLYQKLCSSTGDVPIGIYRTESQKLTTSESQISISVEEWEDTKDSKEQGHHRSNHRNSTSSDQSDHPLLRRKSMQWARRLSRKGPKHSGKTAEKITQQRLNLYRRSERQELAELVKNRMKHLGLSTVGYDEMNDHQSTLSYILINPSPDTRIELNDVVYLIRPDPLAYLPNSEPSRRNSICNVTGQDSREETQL

[2] = target: Calcium-activated potassium channel subunit alpha-1 (Homo sapiens, UniProt Q12791); assay: Inhibition of Maxi-K (unknown origin) expressed in HEK293 cells at 30 uM measured by thallium flux assay relative to control; type: cell-based

Efficacy [1] | Efficacy [2] | SMILES
34% |  | COc1ccc(Cl)cc1NC(=O)[C@H](C)N1CCN(S(=O)(=O)N2CCC(C(F)(F)F)CC2)CC1
29% | 36% | COc1ccc(C(F)(F)F)cc1NC(=O)CN1CCN(S(=O)(=O)N2CCC(C)CC2)CC1
